According to article PMC9394474 (Viruses, 2022):

Legend:
human hisTRIM7-PRYSPRY = target: T1, human hisTRIM7-PRYSPRY (human, UniProt Q9C029 342-511); assay: ITC; conditions: both partners purified
T1 construct: vector pOPTH; also called hTRIM7-PRYSPRY; hTRIM7

hisMBP-TRIM7-CC-PRYSPRY = hisMBP-TRIM7-CC-PRYSPRY (human, UniProt Q9C029 165-511); assay: ITC; conditions: both partners purified

Binder	Kd (human hisTRIM7-PRYSPRY) [nM]	Kd (hisMBP-TRIM7-CC-PRYSPRY) [nM]
rabbit glycogenin-1, full length (natural protein, vector pOPTH; also called rbGYG1; full-length rbGYG1) MTDQAFVTLTTNDAYAKGALVLGSSLKQHRTSRRLAVLTTPQVSDTMRKALEIVFDEVITVDILDSGDSAHLTLMKRPELGVTLTKLHCWSLTQYSKCVFMDADTLVLANIDDLFEREELSAAPDPGWPDCFNSGVFVYQPSVETYNQLLHVASEQGSFDGGDQGLLNTFFNSWATTDIRKHLPFIYNLSSISIYSYLPAFKAFGANAKVVHFLGQTKPWNYTYDTKTKSVRSEGHDPTMTHPQFLNVWWDIFTTSVVPLLQQFGLVQDTCSYQHVEDVSGAVSHLSLGETPATTQPFVSSEERKERWEQGQADYMGADSFDNIKKKLDTYLQ	2300	
DNIKRKLDTYLQ [hsGYG1 322-333 peptide]		15000 ± 6000
hexahistidine-tagged full-length human GYG1, GN1 isoform (natural protein, also called hsGYG1-GN1; hGYG1-GN1) MTDQAFVTLTTNDAYAKGALVLGSSLKQHRTTRRLVVLATPQVSDSMRKVLETVFDEVIMVDVLDSGDSAHLTLMKRPELGVTLTKLHCWSLTQYSKCVFMDADTLVLANIDDLFDREELSAAPDPGWPDCFNSGVFVYQPSVETYNQLLHLASEQGSFDGGDQGILNTFFSSWATTDIRKHLPFIYNLSSISIYSYLPAFKVFGASAKVVHFLGRVKPWNYTYDPKTKSVKSEAHDPNMTHPEFLILWWNIFTTNVLPLLQQFGLVKDTCSYVNVEDVSGAISHLSLGEIPAMAQPFVSSEERKERWEQGQADYMGADSFDNIKRKLDTYLQ		160 ± 50
